Columns and labels:
mouse ear = experiment: AFC in acetone alone, mouse ear edema (irritancy); format: in vivo, mice; settings: topical
Experimental: A range of from 5 mg to 32 mg AFC, a polyisoprenyl-protein inhibitor compound, was mixed with 20 μl acetone to produce an inventive AFC composition. Each concentration was applied with the aid of a micropipetter onto the right ear of each of six mice so that 10 μl of each of the concentrations of the AFC inventive compositions were applied to an inner ear surface and 10 μl was applied to an outer ear surface of the right ear. The AFC inventive compositions were spread evenly with a pipette tip. Each contralateral ear was treated with only acetone in the same manner. The mice then were returned to their cages. After 5.5 hours, mice were sacrificed and 6 mm punches were taken from each ear and weighed. Edema response was expressed as the percent increase in the treated ear's weight over the untreated (acetone, vehicle only) ear.

AA induced MPO = experiment: Arachidonic acid-induced neutrophil infiltration, MPO assay; format: in vivo, mice; settings: AA 4 mg/40 μl acetone, MPO at 5 hr
Experimental: The effect of the inventive compositions on arachidonic acid (AA)-induced inflammation was assayed using the same protocols as above, but with the following modifications. AA was applied to both ears at 4 mg/40 μl acetone. The ears were harvested at 1 hr to measure edema, the maximum response time, and at 5 hr for inflammatory neutrophil infiltration as measured by an MPO assay.

SMILES: CC(=O)N[C@@H](CSCC=C(C)CCC=C(C)CCC=C(C)C)C(=O)O (stereo in doubt) [AFC, N-acetyl-S-farnesylcysteine]
- dose not inducing edema relative to doses having efficacy against chemically-induced edema (mouse ear): 60 fold
- ED50 against AA-induced MPO relative to TPA-induced (AA induced MPO): 10 fold
- activity against AA-induced granulocyte infiltration relative to TPA-induced (AA induced MPO): 50%
